Laboratory results from ChEMBL document CHEMBL1157475, “Selective influence on contextual memory: physiochemical properties associated with selectivity of benzodiazepine ligands at GABAA receptors containing the alpha5 subunit” (J Med Chem, 2008).
pKd: −log10 of the molar value.

The chains behind the UniProt entries cited, without tags or fusion partners. Where a name states a change or a piece, a line headed by the entry shows the natural chain unless it says otherwise.
UniProt P18507: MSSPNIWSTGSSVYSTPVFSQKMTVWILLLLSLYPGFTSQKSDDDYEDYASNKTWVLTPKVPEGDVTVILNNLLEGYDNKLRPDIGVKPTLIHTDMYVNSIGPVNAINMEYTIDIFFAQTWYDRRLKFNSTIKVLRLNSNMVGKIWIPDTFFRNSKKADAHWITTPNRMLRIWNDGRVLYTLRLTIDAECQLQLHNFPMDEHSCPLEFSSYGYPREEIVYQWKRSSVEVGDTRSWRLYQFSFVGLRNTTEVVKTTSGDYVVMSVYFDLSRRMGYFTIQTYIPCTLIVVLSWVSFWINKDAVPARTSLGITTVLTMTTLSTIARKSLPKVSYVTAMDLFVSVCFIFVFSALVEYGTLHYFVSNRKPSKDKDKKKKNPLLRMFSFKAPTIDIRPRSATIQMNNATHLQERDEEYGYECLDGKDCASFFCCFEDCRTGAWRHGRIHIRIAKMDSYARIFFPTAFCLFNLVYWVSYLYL
UniProt P47870: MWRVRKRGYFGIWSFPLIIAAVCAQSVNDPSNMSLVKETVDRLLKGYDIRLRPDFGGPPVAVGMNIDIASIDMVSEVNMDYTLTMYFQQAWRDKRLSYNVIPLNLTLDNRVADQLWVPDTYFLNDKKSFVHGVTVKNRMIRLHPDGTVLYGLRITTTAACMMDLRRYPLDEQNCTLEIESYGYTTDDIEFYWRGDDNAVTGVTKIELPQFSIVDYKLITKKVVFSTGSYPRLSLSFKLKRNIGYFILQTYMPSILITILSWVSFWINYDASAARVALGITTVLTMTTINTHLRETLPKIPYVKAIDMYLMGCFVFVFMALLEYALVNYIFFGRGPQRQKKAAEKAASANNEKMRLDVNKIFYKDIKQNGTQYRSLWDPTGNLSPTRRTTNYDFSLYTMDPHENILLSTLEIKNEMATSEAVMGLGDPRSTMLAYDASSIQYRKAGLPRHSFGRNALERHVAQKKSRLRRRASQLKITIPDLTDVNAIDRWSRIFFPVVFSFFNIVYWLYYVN

Biological target: T1, Gamma-aminobutyric acid receptor subunit alpha-5 (Homo sapiens, UniProt P18507+P31644+P47870)
T1 sequence (P31644 whole entry): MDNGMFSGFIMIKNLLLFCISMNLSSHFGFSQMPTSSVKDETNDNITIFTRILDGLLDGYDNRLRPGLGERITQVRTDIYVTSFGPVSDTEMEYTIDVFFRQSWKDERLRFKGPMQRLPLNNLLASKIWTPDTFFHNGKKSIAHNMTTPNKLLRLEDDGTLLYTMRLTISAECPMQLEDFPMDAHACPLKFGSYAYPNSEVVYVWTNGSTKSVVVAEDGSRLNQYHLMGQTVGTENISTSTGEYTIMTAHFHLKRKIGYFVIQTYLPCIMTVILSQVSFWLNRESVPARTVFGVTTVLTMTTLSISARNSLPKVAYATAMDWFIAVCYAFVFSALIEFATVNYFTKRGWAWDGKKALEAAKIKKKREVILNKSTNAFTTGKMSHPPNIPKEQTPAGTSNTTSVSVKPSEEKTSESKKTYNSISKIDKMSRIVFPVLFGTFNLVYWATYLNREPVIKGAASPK
Test: Binding affinity to GABAA alpha-5-beta-2-gamma-2 receptor
Procedure, shortened: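 Sf-9 insect cells infected with baculovirus carrying α5, β2 and γ2 subunits in equimolar ratio (2 MOI), harvested 60 h post-infection, then homogenized in 50 mM Tris-HCl pH 7.7. Incubated 90 min at 0 °C in triplicate; filtration and scintillation counting.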

CCOC(=O)c1cc2c(cn1)[nH]c1ccccc12
pKd: 7.57
